{
  "sequences": {"note": "Sequences of proteins named here, by UniProt entry; tags and fusion partners are left off. Residues count along the entry.", "UniProt Q63118, 24-464": "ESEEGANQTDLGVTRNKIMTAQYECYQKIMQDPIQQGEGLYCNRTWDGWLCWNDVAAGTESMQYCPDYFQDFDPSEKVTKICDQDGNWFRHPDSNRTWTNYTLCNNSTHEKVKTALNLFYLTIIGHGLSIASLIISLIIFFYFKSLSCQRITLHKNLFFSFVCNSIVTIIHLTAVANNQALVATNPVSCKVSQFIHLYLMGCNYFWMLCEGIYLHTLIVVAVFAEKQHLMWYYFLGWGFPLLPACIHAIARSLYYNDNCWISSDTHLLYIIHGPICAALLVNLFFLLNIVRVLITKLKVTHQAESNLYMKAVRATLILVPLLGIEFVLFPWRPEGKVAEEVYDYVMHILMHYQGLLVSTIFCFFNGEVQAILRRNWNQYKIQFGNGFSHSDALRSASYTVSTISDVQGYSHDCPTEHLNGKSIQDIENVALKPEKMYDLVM", "UniProt Q9JJ74, 27-148": "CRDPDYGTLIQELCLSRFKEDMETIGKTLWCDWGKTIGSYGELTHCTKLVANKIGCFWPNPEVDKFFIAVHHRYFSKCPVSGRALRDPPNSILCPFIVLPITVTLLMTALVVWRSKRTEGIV"},
  "source": "patent US20070111204A1",
  "about": "“Methods for detecting nucleic acid variations” (priority 2003, published 2007)",
  "origin": "cited, not measured here",
  "key": {"CGRP [1]": {"target": "T1, CGRP (Rattus norvegicus, UniProt Q63118+Q9JJ74)", "T1 construct": "host or cells: living rat (dural / facial vasculature), endogenous receptor", "details": "rats, electrical stimulation of the dura mater, prior administration (Williamson et al. 1997)"}, "CGRP [2]": {"target": "T1, CGRP", "details": "trigeminal ganglion stimulation (Escott et al. 1995)"}},
  "data": [
    {"substance": "CGRP(8-37)", "values": [
      {"measurement": "effect on increase of middle meningeal artery diameter", "setting": "CGRP [1]", "value": "blocked"},
      {"measurement": "effect on increase of facial blood flow", "setting": "CGRP [2]", "value": "inhibited"}
    ]}
  ]
}
